Assay results taken from publication PMC8403869 (Proceedings of the National Academy of Sciences of the …, 2021).

Test system: Nc1ncnc2c1ncn2[C@@H]1O[C@H](COP(=O)(O)OP(=O)(O)OP(=O)(O)O)[C@@H](O)[C@H]1O
Assay: purified protein
Details: 0.5-20 mM ATP, 2 mM MgCl2, pH 7.5, 37 °C, 0.06% digitonin, no cholesterol

Work on human ABCG1 (G1) (Homo sapiens) yielded a Km of 7.5 mM.
